Laboratory results: patent US9604923B2 (H. LEE MOFFITT CANCER CENTER AND RESEARCH INSTITUTE, INC., priority 2006, dated 2017)

Amino acid sequences for entries named in this document (tags omitted). Residues count along the entry.
UniProt P06239, 127-224 limits assumed: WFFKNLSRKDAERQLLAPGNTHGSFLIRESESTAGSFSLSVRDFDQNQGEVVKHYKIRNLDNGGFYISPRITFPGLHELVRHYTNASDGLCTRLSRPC

Molecular target: Lck-SH2-GST (Homo sapiens, UniProt P06239)
Details: 30 μM and 100 μM

SMILES: Cc1ccc(S(=O)(=O)OCC(=O)Nc2ccc(C(=O)O)c(O)c2)cc1 [Compound S3I-201, 2-Hydroxy-4-(2-(tosyloxy)acetamido)benzoic acid]
- effect on signal induction (Lck-SH2-GST binding to pTyr peptide EPQpYEEIEL): no effect
